Measured affinities in a library of Ab-14 heavy chain variants

The target is the same throughout: PDVDLGDISGINAS, from the HR2 region of SARS-CoV-2 spike.

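The parent was found by panning a naive human phage display library on the peptide. These sequences belong to a second round, designed from the earlier measurements on random variants of the parent. Their group label is 14H_En_Gen (En: ensemble of fine-tuned language models; Gen: genetic algorithm). AlphaSeq pools MATa yeast showing the antibodies with MATalpha yeast showing the peptide. After mating in shaken culture at 30 °C for 16 h, diploids were selected and their barcode pairs sequenced. A regression on co-assayed BCL2-family reference pairs converts the normalised counts of each replicate to an apparent Kd. The assay was run in six technical replicates.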

Parent: Ab-14, a human scFv built as VH, the linker GGGGSGGGGSGGGGS, VL. Only the CDRs of the heavy chain vary.
VH: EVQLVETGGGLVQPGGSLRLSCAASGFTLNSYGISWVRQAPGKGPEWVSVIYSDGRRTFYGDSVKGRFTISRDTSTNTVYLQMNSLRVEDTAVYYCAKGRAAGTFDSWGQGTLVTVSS
VL: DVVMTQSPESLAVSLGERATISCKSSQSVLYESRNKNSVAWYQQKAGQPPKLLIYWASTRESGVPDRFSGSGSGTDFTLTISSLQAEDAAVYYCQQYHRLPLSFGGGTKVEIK

Variants are written as CDR1, CDR2 and CDR3 of the heavy chain (limits as in the source). Parent: GFTLNSYGIS, VIYSDGRRTFYGDSVK, GRAAGTFDS. Values are log10 of the apparent Kd in nM; lower means stronger binding. A mean of the replicates is given; it leaves out those without a signal. Where no diploid with the target was found in that replicate, the entry reads "n.d.": below detection, most likely a poor binder, though not proof of it. A sequence measured in both rounds can read differently, since the two assays cover different ranges. Nonspecific signal, from three strains lacking the peptide, appeared in 1% of pairings of all heavy chain designs, centred on 2.08 (5% of these signals below 0.84); values are not corrected for it. The control count says in how many pairings with the empty strains this scFv gave a signal, with their mean in brackets. The authors averaged sequences with at least three values out of six and counted those with two or fewer as poor binders.

CDR-H1,CDR-H2,CDR-H3,"replicates, log10 nM",mean log10 Kd (nM),empty controls
GFDLDEYGIS,VIYADGLRTAYSDSVK,GNVAGTFDV,-1.42 n.d. -0.31 n.d. n.d. -2.03,-1.25,0 of 18
GFDLDEYGIS,VIYADGMRTAYADSVK,GEVAGTFDL,-0.39 -0.07 -0.56 -0.46 -0.67 -0.15,-0.39,0 of 18
GFDLNEYGIS,VIYADGVRTAYIDSVK,GEVAGTFDL,0.04 0.23 -0.08 -0.35 -0.15 0.24,-0.01,1 of 18 (3.40)
GFDLNEYGIS,VIYADGRRTAYVDSVK,GGNAGTFDV,-0.09 0.05 -0.22 0.26 0.49 0.15,0.11,0 of 18
GFDLDEYGIS,VIYADGMRTFYADSVK,GGNAGTFDV,-0.48 -0.38 -0.46 -0.52 -0.59 -0.26,-0.45,0 of 18
GFDLDEYGIS,VIYADGQRTAYADSVK,GNQAGTFDL,-0.48 -0.58 -0.73 -0.54 -0.80 -0.67,-0.63,0 of 18
GFDLNEYGIS,VIYADGRRTAYADNVK,GETAGTFDL,-0.30 -0.24 -1.06 -0.92 -0.56 -0.82,-0.65,0 of 18
GFDLNEYGIS,VIYADGSRTAYSDSVK,GNQAGTFDI,-0.07 -0.15 -0.25 -0.43 -0.22 -0.06,-0.20,0 of 18
GFDLNEYGIS,VIYADGQRTVYADSVK,GENAGTFDL,0.13 -0.20 -0.36 -0.73 -0.39 -0.37,-0.32,1 of 18 (2.19)
GFDLNEYGIS,VIYADGMRTVYADSVK,GEVAGTFDV,-0.79 -0.86 -1.30 -1.21 -1.28 -1.67,-1.18,0 of 18
GFDLNEYGIS,VIYADGLRTAYSDDVK,GNVAGTFDV,-0.05 -0.19 -0.20 -0.41 -0.51 -0.23,-0.26,0 of 18
GFDLNEYGIS,VIYADGMRTVYTDSVK,GNNAGTFDV,-0.05 0.09 0.59 -0.01 0.06 -0.56,0.02,0 of 18
GFDLNEYGIS,VIYADGVRKYYADDVK,GNVAGTFDV,-0.39 -0.49 -1.23 -1.10 -0.73 -0.46,-0.73,0 of 18
GFDLNEYGIS,VIYADGKRTAYADSVK,GQNAGTFDQ,-0.07 -0.41 -0.21 -0.61 -0.35 -0.25,-0.32,0 of 18
GFDLNEYGIS,VIYADGKRTYYADSVK,GEVAGTFDI,-0.62 -0.72 -0.88 -0.72 -0.84 -0.55,-0.72,1 of 18 (1.84)
GFDLDEYGIS,VIYADGQRTAYADDVK,GENAGTFDT,0.26 -0.39 0.34 -0.05 -0.11 0.35,0.07,0 of 18
GFDLDEYGIS,VIYADGQRTAYADDVK,GENAGTFDI,0.00 -0.02 -0.19 -0.15 -0.17 -0.03,-0.09,0 of 18
GFDLNEYGIS,VIYADGSRTAYADDVK,GNQAGTFDV,0.38 -0.74 -1.01 -0.17 -0.86 0.28,-0.35,0 of 18
GFDLNEYGIS,VIYADGMRTAYKDSVK,GNVAGTFDV,-0.02 -0.36 -0.59 0.03 -0.30 0.21,-0.17,0 of 18
GFDLNEYGIS,VIYADGMRQYYADSVK,GENAGTFDV,-0.76 -1.24 -0.84 -0.73 -1.00 -1.00,-0.93,0 of 18
GFDLNEYGIS,VIYADGVRKAYADDVK,GENAGTFDI,0.65 0.44 1.72 0.43 0.56 0.63,0.74,0 of 18
GFDLNEYGIS,VIYADGIRTAYVDSVK,GNVAGTFDV,-0.29 -0.16 -0.56 -0.12 -0.23 -0.24,-0.27,0 of 18
GFDLNEYGIS,VIYADGQRTAYADSVK,GTNAGTFDI,0.25 0.23 0.12 0.19 -0.01 0.55,0.22,0 of 18
GFDLDEYGIS,VIYADGQRTYYADSVK,GNVAGTFDI,-0.90 -1.14 -0.91 -1.29 -1.27 -0.92,-1.07,0 of 18
GFDLNEYGIS,VIYADGMRTAYADKVK,GGNAGTFDV,-0.55 -0.67 -0.51 -0.49 -0.49 0.28,-0.41,0 of 18
GFDLNEYGIS,VIYADGKRTAYAESVK,GENAGTFDV,-0.43 -0.72 -0.96 -0.85 -0.66 -0.57,-0.70,0 of 18
GFDLNEYGIS,VIYADGSRTAYADSVK,GQNAGTFDL,0.27 1.50 0.09 0.23 1.50 -0.08,0.59,0 of 18
GFDLNEYGIS,VIYADGMRTAYVDSVK,GSNAGTFDI,-1.06 -1.23 -0.78 -1.21 -1.13 -1.05,-1.08,0 of 18
GFDLNEYGIS,VIYADGRRTAYADSVK,GQVAGTFDV,-0.11 -0.54 -0.51 -0.37 -0.84 -0.16,-0.42,1 of 18 (2.24)
GFDLNEYGIS,VIYADGMRTAYADNVK,GNQAGTFDV,n.d. n.d. n.d. n.d. n.d. n.d.,n.d.,0 of 18
GFDLNEYGIS,VIYADGMRTAYTDSVK,GTNAGTFDV,-0.53 -0.37 -0.67 -0.99 -0.81 -0.51,-0.65,0 of 18
GFDLNEYGIS,VIYADGKRTAYVDSVK,GNEAGTFDV,-0.35 -0.22 -0.09 -0.51 -0.24 -0.08,-0.25,0 of 18
GFDLNEYGIS,VIYADGMRTAYADNVK,GNTAGTFDQ,n.d. n.d. n.d. n.d. n.d. n.d.,n.d.,1 of 18 (1.41)
GFDLNEYGIS,VIYADGMRTYYADDVK,GNVAGTFDI,0.60 -0.60 -0.70 -0.62 -0.38 -0.06,-0.29,1 of 18 (3.15)
GFDLNEYGIS,VIYADGMRTFYTDSVK,GNQAGTFDV,-0.19 -0.80 -0.52 -0.26 -0.39 0.15,-0.33,0 of 18
GFDLDEYGIS,VIYADGRRTAYIDSVK,GNVAGTFDL,-0.61 -0.55 -0.73 -0.59 -0.79 -0.18,-0.57,0 of 18
GFDLDEYGIS,VIYADGMRTAYADSVK,GNTAGTFDI,0.23 0.75 0.18 0.35 0.13 0.34,0.33,0 of 18
GFDLDEYGIS,VIYADGKRTAYTDSVK,GEVAGTFDL,-0.82 -0.92 -0.14 -1.42 0.48 -0.52,-0.56,0 of 18
GFDLDEYGIS,VIYADGMRTSYADSVK,GETAGTFDV,-0.34 -0.44 -0.43 -0.18 -0.62 -0.34,-0.39,1 of 18 (1.89)
GFDLNEYGIS,VIYADGSRTAYADNVK,GEVAGTFDV,-0.02 0.02 -0.01 -0.11 -0.11 0.39,0.03,1 of 18 (2.76)

Reference: Li et al. 2023, doi:10.1038/s41467-023-39022-2. File: FLAb, binding data.